Experiments:
Format in all cases: cell-based
Details in all cases: filed as agonist
CHO [1] = assay: Agonist activity at rat BK calcium channel alphabeta1 expressed in CHO cells assessed as fold change in current amplitude at 10 uM by automated whole cell patch clamp analysis
CHO [2] = assay: Agonist activity at rat BK calcium channel alphabeta1 expressed in CHO cells assessed as fold increase in current amplitude by automated whole cell patch clamp analysis
[3] = biological target: Calcium-activated potassium channel subunit alpha-1 (Rattus norvegicus) (UniProt Q62976); assay: Agonist activity at rat BK calcium channel alpha expressed in CHO cells assessed as fold change in current amplitude at 10 uM by automated whole cell patch clamp analysis

Sequences of proteins named here, by UniProt entry; tags and fusion partners are left off. A change or cut given only in a name is not applied to a line headed by its entry.
UniProt Q62976: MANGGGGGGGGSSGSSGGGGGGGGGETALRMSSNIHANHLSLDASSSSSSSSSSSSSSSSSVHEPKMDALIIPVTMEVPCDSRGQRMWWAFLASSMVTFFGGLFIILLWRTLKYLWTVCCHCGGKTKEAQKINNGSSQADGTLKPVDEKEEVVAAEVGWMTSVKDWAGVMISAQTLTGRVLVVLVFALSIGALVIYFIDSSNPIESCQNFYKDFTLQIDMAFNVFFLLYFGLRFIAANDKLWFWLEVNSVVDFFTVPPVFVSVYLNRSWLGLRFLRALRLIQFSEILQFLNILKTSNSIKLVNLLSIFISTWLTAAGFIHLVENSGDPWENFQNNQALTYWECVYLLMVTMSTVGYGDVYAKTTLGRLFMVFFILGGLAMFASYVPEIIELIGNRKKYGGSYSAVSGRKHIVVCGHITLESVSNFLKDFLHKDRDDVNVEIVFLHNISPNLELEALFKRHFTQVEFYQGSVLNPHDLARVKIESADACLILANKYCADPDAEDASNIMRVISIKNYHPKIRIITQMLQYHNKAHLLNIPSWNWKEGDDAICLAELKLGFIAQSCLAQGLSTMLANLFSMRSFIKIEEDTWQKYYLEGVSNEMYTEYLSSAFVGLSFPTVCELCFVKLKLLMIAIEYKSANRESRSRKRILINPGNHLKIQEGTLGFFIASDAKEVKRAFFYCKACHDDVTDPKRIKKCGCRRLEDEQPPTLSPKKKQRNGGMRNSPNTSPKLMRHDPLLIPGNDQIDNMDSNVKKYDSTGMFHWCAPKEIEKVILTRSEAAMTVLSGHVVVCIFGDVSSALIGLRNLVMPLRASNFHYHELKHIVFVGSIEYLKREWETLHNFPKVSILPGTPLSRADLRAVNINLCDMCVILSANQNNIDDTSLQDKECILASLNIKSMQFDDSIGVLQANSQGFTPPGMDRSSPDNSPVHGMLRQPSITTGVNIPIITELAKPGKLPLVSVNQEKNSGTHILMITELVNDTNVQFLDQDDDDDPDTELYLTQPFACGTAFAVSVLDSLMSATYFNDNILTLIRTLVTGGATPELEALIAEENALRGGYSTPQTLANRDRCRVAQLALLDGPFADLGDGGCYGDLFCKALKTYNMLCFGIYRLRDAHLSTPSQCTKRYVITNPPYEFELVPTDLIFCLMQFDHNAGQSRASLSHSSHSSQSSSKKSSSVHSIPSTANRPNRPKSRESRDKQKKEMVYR

O=C1NC(=O)N(c2ccc(F)cc2)C(=O)/C1=C/c1cc(Br)ccc1OCc1cccc([N+](=O)[O-])c1
fold change (FC) (CHO [1]): 9.86 | fold change (FC) (CHO [2]): 10 | fold change (FC) [3]: 2.52

Source: ChEMBL document CHEMBL5113442, “Discovery of agonist-antagonist pairs for the modulation of Ca [2]+ and voltage-gated K+ channels of large conductance that contain beta1 subunits” (Bioorg Med Chem, 2022)
